In US10087260B2, “Anti-HER2 antibody and conjugate thereof” (REMEGEN, LTD., priority 2013, dated 2018):

Target: T1, HER2-ECD (Homo sapiens, UniProt P04626)
T1 construct: made in house; host or cells: HEK293
Experiment: Affinity assay of ADC by ELISA
Assay type: binding
Details: ELISA on coated HER2-ECD; molar equivalent of affinity

For T-DM1, the Kd was 15.2 pM.
